# Measured affinities in a library of Ab-95 light chain variants

The target is the same throughout: PDVDLGDISGINAS, from the HR2 region of SARS-CoV-2 spike.

Parent: Ab-95, a human scFv built as VH, a (GGGGS)3 linker, VL. Only the CDRs of the light chain vary.
VH: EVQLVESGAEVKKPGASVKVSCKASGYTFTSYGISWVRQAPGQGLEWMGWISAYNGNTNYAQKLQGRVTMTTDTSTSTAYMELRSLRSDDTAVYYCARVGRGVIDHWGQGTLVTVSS
VL: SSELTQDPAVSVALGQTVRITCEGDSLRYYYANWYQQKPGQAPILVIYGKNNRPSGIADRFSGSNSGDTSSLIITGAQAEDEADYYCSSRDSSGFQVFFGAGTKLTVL

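The parent was found by panning a naive human phage display library on the peptide. In library AAYL52, one, two or three CDR residues were substituted; doubles and triples were drawn at random. The assay is AlphaSeq: two haploid yeast populations carry antibody and antigen on their surface. The frequency of each diploid, read from paired DNA barcodes, reflects how well the two displayed proteins bind. The ratio of observed to expected reads was calibrated, replicate by replicate, on BCL2-family standards whose Kd was known from biolayer interferometry. Mating was done three times.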

Changes read parent residue, position, new residue, counted from the first residue of the VL shown. Scale: log10 of Kd in nM, estimated from mating counts; low values are strong binders. A mean of the replicates is given; it leaves out those without a signal. "nd" means that the variant was in the library but no mating with the target was seen in that replicate; the authors take this as a sign of poor binding, and no number exists. Three control strains display no target. For library AAYL52, 28% of the pairings with them gave a signal, with a median of 3.91 and one signal in twenty below 2.90, so weak values seen in few replicates may be background. For each scFv, signals with the empty controls are counted beside the result, with their mean in brackets.

changes	log10 Kd (nM) by replicate	log10 Kd (nM), mean	signal with controls
R28L+A32F+N33K	2.76 2.60 2.28	2.55	2/9 (4.18)
G49H+R90L+G94D	4.47 4.93 3.63	4.34	7/9 (4.19)
E23I+V97N+F98E	2.45 3.92 nd	3.18	3/9 (3.83)
E23S+F98R	1.98 2.20 0.99	1.73	1/9 (3.56)
Y31N+N33L+S89W	2.40 2.19 1.94	2.17	6/9 (4.20)
R28F+Y29Q+G94M	3.21 2.89 1.89	2.66	3/9 (4.77)
D25Y+Y31A+K50E	1.18 1.07 0.68	0.98	1/9 (4.40)
E23C+D25Y+R28V	nd nd nd	nd	3/9 (3.43)
S55D+S89T+D91S	1.67 1.71 1.28	1.55	1/9 (3.90)
Y30N+K50H+N52V	1.06 1.12 0.45	0.88	2/9 (3.43)
Y30R+R90L+Q96N	2.69 2.35 2.61	2.55	3/9 (3.91)
L27H+R28T+Y31R	nd nd nd	nd	2/9 (4.24)
D25Q+N33E+S55A	2.43 2.50 1.78	2.24	2/9 (4.00)
Y30I+S55Q+S93L	2.91 4.20 2.83	3.32	3/9 (4.01)
D25Y+S88D	2.54 2.54 1.94	2.34	2/9 (3.90)
A32H+N52A+S88C	nd 3.86 4.34	4.10	1/9 (4.22)
D25G+N33M+V97I	nd 4.00 nd	4.00	2/9 (3.33)
L27D+Y31M+S88E	2.73 2.98 2.21	2.64	3/9 (4.85)
E23I+S88N+S89G	2.35 2.55 2.17	2.36	2/9 (3.58)
G24T+D25A+K50I	4.53 4.64 nd	4.59	5/9 (3.72)
S88D+S89I+Q96T	nd nd nd	nd	1/9 (3.95)
Y29R+F95Y	2.47 2.24 2.16	2.29	4/9 (4.05)
S89E+D91G	3.35 2.89 1.92	2.72	2/9 (4.06)
L27D+A32Q+S93L	nd 4.24 nd	4.24	2/9 (3.94)
S26P+R53I+S55A	2.98 2.50 2.76	2.75	3/9 (3.90)
R28Q+A32T+S88R	2.82 2.26 3.28	2.79	1/9 (3.50)
E23L+N51K+S93L	4.60 nd nd	4.60	2/9 (3.95)
E23N+S26Y+Y29C	nd 5.54 nd	5.54	3/9 (4.04)
D25Y+L27I+N51P	4.70 nd nd	4.70	2/9 (3.17)
Y31L+N52L+V97W	2.40 2.44 2.60	2.48	4/9 (3.93)
Y29M+Y30C+N33L	2.41 2.85 2.21	2.49	1/9 (3.39)
Y31Q+N33D+R53G	nd 3.64 4.06	3.85	5/9 (4.14)
Y30S+A32Y+R90I	nd nd nd	nd	0/9
G24A+K50G+F95I	2.93 2.97 nd	2.95	3/9 (3.53)
Y30L+R90V+S92F	2.36 1.89 1.32	1.86	2/9 (3.82)
E23T+R53K+R90E	3.46 2.12 2.92	2.84	1/9 (3.81)
Y31P+N51G+S55V	1.40 1.47 0.89	1.25	2/9 (3.15)
L27H+S89C+R90G	nd nd nd	nd	0/9
P54K+S88W+D91A	4.34 3.70 2.65	3.56	1/9 (4.57)
L27S+G49T+S88V	3.92 4.38 nd	4.15	4/9 (4.52)
K50W+N52C+P54T	nd nd nd	nd	0/9
G24K+S26H+N33M	nd nd nd	nd	2/9 (3.54)

A selection of 4 entries from above:

changes	log10 Kd (nM) by replicate	log10 Kd (nM), mean	signal with controls
D25Q+N33E+S55A	2.43 2.50 1.78	2.24	2/9 (4.00)
Y29M+Y30C+N33L	2.41 2.85 2.21	2.49	1/9 (3.39)
D25Y+L27I+N51P	4.70 nd nd	4.70	2/9 (3.17)
Y30S+A32Y+R90I	nd nd nd	nd	0/9

Parent in this assay: reference entry 2.31, copy in this library 2.25.

From the AlphaSeq antibody data of Engelhart et al. 2022 (doi:10.1038/s41597-022-01779-4), copy in the FLAb collection.